The data set deals with lymphocytes. Put plainly: Stimulation of lymphocyte-mediated cytotoxic function. The format is cell-based, human. The note with it: optimal stimulating concentration of IL-2.

Interleukin-2 [IL-2] returned a Lymphocyte-mediated cytotoxic function of 472.5 Lytic Units.

The values above are taken from patent US20080279957A1, “Immunomodulating compositions from bile” (Lorus Therapeutics Inc., priority 2000, published 2008).
